An excerpt weighted towards active compounds, which were near 3.7% of everything screened.
ClpP mod: qHTS Assay for Activators of ClpP. Potency, µM (series often up to 57.5 µM), inactives show at the top dose activity change, negative = active. purified B. subtilis ClpP, FRET peptide cleavage, 20 min. 340,000 tested, 1.9% active. ATP-dependent Clp protease proteolytic subunit (Bacillus subtilis (strain 168)), P80244. AID 651965, 2013; active = well fitted falling curve with a large enough effect; inconclusive = small, poorly fitted or top-dose-only effect; inactive = no such curve, though single readings can be large or run the other way; also: potency is read from the fitted curve at half-maximal effect; the source files actives as falling curves though it sought activators and does not explain the sign; nearly all actives have a fitted effect of over 65% in size
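Purified B. subtilis ClpP, 10 microg/mL final in Tris/HCl pH8 with KCl, BSA, glycerol and Tween-20, cleaved an Abz/nitrotyrosine-quenched decapeptide. Fluorescence (ex 320, em 430) was read at 0 and 20 min at room temperature. Delta was normalized to 5.8 microM ADEP and DMSO/no-enzyme controls.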
Nrf2 inh: blocks Nrf2 signaling; Potency, µM (top dose mostly 46 µM), for the others: at the highest dose activity change, negative = inhibition, most hits filed as inhibitors; A549 ARE-Fluc reporter, luciferase luminescence, 18-24 h; 360,000 tested, 2.1% active; also: potency is read from the fitted curve at half-maximal effect; % is scaled to controls: 0 for no effect and ±100 for the full control effect; nearly all actives have a fitted effect of over 60% in size
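Cells were seeded and rested 2 h, then exposed to compounds for 18-24 h. CellTiter-Fluor was read first as a viability measure. BugLite was added 15 min before the final luminescent read of ARE-luciferase activity in A549 cells.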
TCR act: activates T cell receptor signaling. Potency, µM (series often up to 9.22 µM), for the others: top-dose activation of IL-2 secretion, actives largely listed as activators. 330,000 tested, under 10 active. primary human leukocytes, anti-CD3, IL-2 HTRF, 48 h; also: % of control where 0% means no effect
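IL-2 release read by HTRF sandwich (Eu cryptate donor, d2 acceptor, 665 nm emission) after 48 hr exposure of primary human leukocytes to compound together with anti-CD3 beads in the absence of co-stimulatory signals.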
A549 tox-1: counter-screen for Nrf2 inhibitors: cytotoxicity in A549 cells | 390,000 tested, 0.16% active | Potency, µM (doses to about 46 µM), for the others: top-dose activity change, negative = cytotoxicity, usual class: inhibitors | A549 ARE-Fluc cells, CellTiter-Fluor viability, 18-24 h | AID 504648; also: potency is read from the fitted curve at half-maximal effect; % is scaled to controls: 0 for no effect and ±100 for the full control effect
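A549 ARE-Fluc cells in 5% FBS OPTI-MEM, 5000 cells/well, rested 2 h then exposed to compounds in concentration-response for 18-24 h at 37 °C. Viability by CellTiter-Fluor fluorescence (Ex 405/Em 525) after 30 min; luciferase luminescence (BugLite, 15 min, RT) read afterwards.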
Nrf2 activator: activates Nrf2 signaling. AREc32 ARE-luciferase reporter (MCF7-derived line), luminescence, 24 h. Potency, µM (titrated, usually from 46.1 µM), inactives show at the top dose activation, actives largely listed as activators. 410,000 tested, 0.31% active. AID 624171; also: potency is read from the fitted curve at half-maximal effect; % of control where 0% means no effect; nearly all actives have a fitted effect of over 65% in size
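AREc32 cells carrying an ARE-driven firefly luciferase reporter were seeded at 1000 cells/well in OPTI-MEM with 5% FBS, then exposed to compound for 24 hr at 37 deg C. Luminescence was read with Steady-Glo after 30 min at RT.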
miR-21 reporter: miR-21 reporter, rising signal. 340,000 tested, under 10 active. Potency, µM (highest dose often 38.3 µM), for the others: at the highest dose reporter change, positive = more light. HeLa miR-21 FLuc reporter, luciferase, 48 h. AID 2288; active = well fitted rising curve with a large enough effect; inconclusive = small, poorly fitted or top-dose-only effect; inactive = no such curve, though single readings can be large or run the other way;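 further: % of control where 0% means no effect; miR-21 action dims this reporter so a rising signal means less miR-21 action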
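Luminescence from a firefly luciferase reporter carrying a miR-21 binding site downstream, stably expressed under a CMV promoter in HeLa cells that make miR-21 endogenously, reports miRNA modulation after 48 h compound exposure up to approximately 40uM final.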
FLuc counter 3: counter-screen for Nrf2 inhibitors: firefly luciferase enzyme inhibition; purified firefly luciferase, luminescence inhibition; 1,400 tested, 4% active; AID 720522; shares compounds with Nrf2 inh; Potency, µM (doses to about 57.5 µM), for the others: at the top dose activity change, negative = inhibition, hits mostly inhibitors; also: potency is read from the fitted curve at half-maximal effect; % is scaled to controls: 0 for no effect and ±100 for the full control effect; nearly all actives have a fitted effect of over 65% in size
A549 tox-2: A549 cytotoxicity, Nrf2 inhibitor counterscreen | shares compounds with Nrf2 inh | A549 ARE-Fluc cells, cytotoxicity counterscreen | Potency, µM (top dose mostly 46.1 µM), for inactives: at the top dose activity change, negative = cytotoxicity, most hits filed as inhibitors | 1,400 tested, 2% active;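 also: potency is read from the fitted curve at half-maximal effect; cells exposed to compounds for 18 to 24 hours; % is scaled to controls: 0 for no effect and ±100 for the full control effect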
Nrf2 ARE inh: confirmation of Nrf2 inhibitors in A549 ARE reporter cells; shares compounds with Nrf2 inh; 1,400 tested, 74% active; A549 ARE-firefly luciferase reporter, luminescence; Potency, µM (highest dose often 46.1 µM), inactives show top-dose activity change, negative = inhibition, usual class: inhibitors; AID 720524; also: potency is read from the fitted curve at half-maximal effect; % is scaled to controls: 0 for no effect and ±100 for the full control effect; nearly all actives have a fitted effect of over 65% in size
* hit, by the source's call; u = inconclusive; x = no result given; [ ] = dose if it differs, or a comment. Unless noted, calls follow the shape of the dose curve; as a rule, active = well fitted curve in the direction sought with a large enough effect; inconclusive = small, poorly fitted or top-dose-only effect, or another doubt; inactive = no such curve, though single readings can be large; an effect the other way counts as inactive or inconclusive.

[1] CCOC(=O)c1sc(NC(=O)c2cc(-c3ccccc3C)nc3ccccc23)c(C#N)c1C
[2] Cc1ccccc1-c1cc(C(=O)Nc2sc(C)c(C)c2C(N)=O)c2ccccc2n1
[3] O=S(=O)(NC1CCc2ccccc21)c1ccc(S(=O)(=O)N2CCCC2)cc1 (centres undefined)
[4] Nc1cc(S(=O)(=O)N2CCOCC2)ccc1Oc1cccc(Br)c1
[5] COc1ccc(CNc2nc3c(c(=O)n(Cc4ccc(Cl)cc4)c(=O)n3C)n2C)cc1
[6] COCCNc1nc2c(c(=O)n(Cc3ccc(OC)cc3)c(=O)n2C)n1C
[7] C[n+]1ccccc1N1CCN(c2ccccc2Cl)CC1
[8] COc1ccc(C(=S)N2CCN(c3ccccc3Cl)CC2)cc1OC

entry no.	1	2	3	4	5	6	7	8
ClpP mod	-2.5%	-0.9%	1.2%	-1.7%	-4.0%	0.3%	-0.3%	-0.1%
Nrf2 inh	4.11µM*	x	4.11µM*	8.2µM*	9.2µM*	3.2%	3.26µM*	-16.2%
TCR act	-3.5%	0.4%	x	-8.5%	0.1%	-3.2%	4.8%[46.1 µM]	0.1%
A549 tox-1	u	-21.4%	-2.6%	-18.5%	u	-0.6%	-2.9%	-3.2%
Nrf2 activator	4.6%	3.0%	1.8%	2.9%	-0.4%	-0.6%	-1.1%	-1.0%
miR-21 reporter	u	u	9.5%	x	u	2.7%	5.0%	-0.9%
FLuc counter 3	12µM*	x	0.7%	0.3%	-0.2%	x	2.8%	x
A549 tox-2	u	x	1.3%	-1.2%	-19.1%	x	-11.7%	x
Nrf2 ARE inh	4.11µM*	x	u	8.2µM*	13µM*	x	6.51µM*	x

[9] CCOC(=O)c1ccc(NC(=O)c2cn3c4c(ccc(Cl)c4c2=O)OC(C)C3)cc1 (centres undefined)
[10] CC(=NNC(=O)c1ccncc1)c1ccccc1O
[11] CC(=NNC(=O)c1ccncc1)c1ccc2ccccc2c1O
[12] Cc1nc2nncn2c(NCc2ccc(Cl)cc2)c1C
[13] CCc1c(C)nc2nncn2c1NCc1ccc(OC)cc1
[14] C/C=C(\C)C(=O)Nc1cccc(C2=NOC3(C2)C[C@H](C(N)=O)N(C(=O)C(c2ccccc2)c2ccccc2)C3)c1 (some centres undefined)
[15] O=[N+]([O-])c1ccc(CN2CCN(c3ccc([N+](=O)[O-])cc3)CC2)cc1
[16] Cc1cccc(C)c1NC(=O)C(c1ccncc1)n1c(=O)c(-c2ccco2)nc2ccccc21 (centres undefined)

entry no.	9	10	11	12	13	14	15	16
ClpP mod	0.5%	x	2.8%	-2.7%	-2.7%	-1.4%	u	4.1%
Nrf2 inh	16.0%	u	2.59µM*	3.26µM*	u	-26.5%	7.31µM*	x
TCR act	x	-2.2%	-2.7%	x	x	-3.8%	8.0%	x
A549 tox-1	-8.4%	-13.6%	u	-5.5%	-3.5%	1.0%	-24.0%	x
Nrf2 activator	-0.8%	-0.9%	-1.5%	3.3%	0.6%	3.8%	1.5%	x
miR-21 reporter	2.6%	x	x	u	12.2%	18.3%	23.7%	x
FLuc counter 3	x	x	-17.3%	-1.1%	x	x	-1.0%	x
A549 tox-2	x	x	-16.8%	-1.7%	x	x	-15.7%	x
Nrf2 ARE inh	x	x	4.11µM*	6.51µM*	x	x	x	x

[17] CC(C(=O)Nc1ccc(O)cc1)c1cccc(C(=O)c2ccccc2)c1 (centres undefined)
[18] COC(=O)C12OCC34C(CC5C(C)=C(O)C(=O)CC5(C)C3C(O)C1O)OC(=O)C(OC(=O)C=C(C)C)C24 (centres undefined)
[19] CCN(C(=O)c1ccc(C(C)(C)C)cc1)c1nnc(Cn2nnc3ccccc32)s1
[20] Cc1cc2cc(CN(Cc3ccco3)S(=O)(=O)c3c(C)ccc4nsnc34)c(=O)[nH]c2cc1C
[21] Cc1cc(C)cc(NC(=O)C(C)N2Cc3ccccc3C2=O)c1 (centres undefined)
[22] CCOC(=O)N1CCC(NC(=O)c2ccc(CO)c(C(=O)NC3CCN(C(=O)OCC)CC3)c2)CC1
[23] CCOC(=O)N1CCC(NC(=O)c2cc(C(=O)Nc3cccc(C(F)(F)F)c3)ccc2CO)CC1
[24] Cc1ccc(C)c(NC(=O)c2cc(S(=O)(=O)N3CCN(c4cccc(Cl)c4)CC3)ccc2F)c1

entry no.	17	18	19	20	21	22	23	24
ClpP mod	x	1.0%	-1.5%	-7.2%	0.9%	0.0%	-1.0%	-11.5%
Nrf2 inh	9.2µM*	0.0164µM*	5.8µM*	2.31µM*	28.3%	4.3%	5.8µM*	x
TCR act	1.9%	1.4%	5.8%	1.9%	x	-3.4%	-1.7%	x
A549 tox-1	-25.9%	u	u	-21.3%	1.0%	-0.2%	u	3.2%
Nrf2 activator	3.1%	-0.8%	4.6%	0.2%	-0.6%	-0.1%	5.1%	-0.5%
miR-21 reporter	6.5%	x	26.6%	-1.4%	2.0%	-3.0%	16.8%	-2.3%
FLuc counter 3	-14.9%	1.6%	0.7%	u	x	x	2.5%	x
A549 tox-2	2.0%	u	-15.2%	-29.6%	x	x	-9.0%	x
Nrf2 ARE inh	u	0.0116µM*	6.51µM*	3.26µM*	x	x	16.4µM*	x

Among those listed so far, 2 have fluorine:
[23] CCOC(=O)N1CCC(NC(=O)c2cc(C(=O)Nc3cccc(C(F)(F)F)c3)ccc2CO)CC1
[24] Cc1ccc(C)c(NC(=O)c2cc(S(=O)(=O)N3CCN(c4cccc(Cl)c4)CC3)ccc2F)c1

entry no.	23	24
ClpP mod	-1.0%	-11.5%
Nrf2 inh	5.8µM*	x
TCR act	-1.7%	x
A549 tox-1	u	3.2%
Nrf2 activator	5.1%	-0.5%
miR-21 reporter	16.8%	-2.3%
FLuc counter 3	2.5%	x
A549 tox-2	-9.0%	x
Nrf2 ARE inh	16.4µM*	x

Next section:
[25] COC(=O)c1ccc2c(c1O)C(=O)c1ccccc1C2=O
[26] Cc1ccc(O)c(Nc2nc3ccccc3c3nncn23)c1
[27] COc1cc(C2CC(=O)c3c([nH]c(C(=O)OCC4CCCCC4)c3C)C2)cc(OC)c1OC (centres undefined)
[28] COc1ccc(COC(=O)c2[nH]c3c(c2C)C(=O)CC(c2ccc(OC)c(OC)c2)C3)cc1 (centres undefined)
[29] COC(=O)C[C@@H]1C=C[C@@H](NC(=O)CN(C)C)[C@@H](CO)O1
[30] O=C(Nc1cccc(Cl)c1)c1ccc(S(=O)(=O)NCC2CCCO2)cc1 (centres undefined)
[31] O=C(Nc1ccccc1)c1ccc(S(=O)(=O)NCC2CCCO2)cc1 (centres undefined)
[32] CC(=O)NS(=O)(=O)c1ccc(NC(=O)c2cccc(S(=O)(=O)N3CCc4ccccc43)c2)cc1

entry no.	25	26	27	28	29	30	31	32
ClpP mod	-0.2%	-1.6%	-2.4%	-13.5%	3.5%	1.9%	-0.1%	0.2%
Nrf2 inh	3.26µM*	12.2%	2.31µM*	6.51µM*	x	4.61µM*	2.6%	2.8%
TCR act	x	x	x	x	x	-11.9%	12.4%	2.3%
A549 tox-1	u	-0.6%	-10.0%	-8.2%	x	-16.8%	0.9%	1.3%
Nrf2 activator	2.5%	u	0.4%	-0.9%	x	2.2%	-0.9%	-0.1%
miR-21 reporter	-25.3%	2.3%	u	15.2%	x	21.6%	-5.6%	0.4%
FLuc counter 3	10.7µM*	x	2.1%	-1.8%	x	-0.7%	x	x
A549 tox-2	3.66µM*	x	0.7%	-0.2%	x	-3.2%	x	x
Nrf2 ARE inh	3.66µM*	x	4.61µM*	6.51µM*	x	13µM*	x	x
